Source: patent publication US9091804B2, “Polymer film, and optically-compensatory film, polarizer and liquid-crystal display device comprising the same” (FUJIFILM Corporation, priority 2004, dated 2015)

Experiments:
[1] = solubility in 1.5 mol/liter aqueous NaOH at 55° C. (visual); conditions: 1.5 mol/liter NaOH at 55° C., visual observation
[2] = pKa by potentiometric titration in DMSO/water=7/3

Structure (SMILES)	Solubility [1] [%]	pKa [2]
O=P12OCC(C34CC5CC(CC(C5)C3)C4)(CO1)CO2	<1	> 14
O=P12OCC(COC(c3ccccc3)(c3ccccc3)c3ccccc3)(CO1)CO2	<1	> 14
